For this assay, the target named is Adenosine receptor A1 (Rattus norvegicus) (UniProt P25099). The experiment in a line: Displacement of [3H]CCPA from adenosine A1 receptor in rat brain cortical membrane at 25 uM. On the technique in general: Displacement assays read how much labelled ligand stays bound in the presence of the test substance.
Take `Cn1c(=O)c2c(nc3n2CCCN3CCc2c[nH]c3ccccc23)n(C)c1=O`: the Activity was found to be 41%.

For `Cn1c(=O)c2c(nc3n2CCCN3CCc2ccccn2)n(C)c1=O`, the Activity was 22%. Turning to `Cn1c(=O)c2c(nc3n2CCCN3CCc2ccc(O)cc2)n(C)c1=O`, the Activity worked out at 46%.

The values above are taken from ChEMBL document CHEMBL1137492, “Phenylethyl-substituted pyrimido[2,1-f]purinediones and related compounds: structure-activity relationships as adenosine A(1) and A(2A) receptor ligands” (Bioorg Med Chem, 2007).
